Data taken from patent US7164002B2, “FVIIa antagonists” (Genentech, Inc., priority 2002, dated 2007).

Amino acid sequences for entries named in this document (tags omitted). Residues count along the entry.
UniProt P08709, 61-212 limits assumed: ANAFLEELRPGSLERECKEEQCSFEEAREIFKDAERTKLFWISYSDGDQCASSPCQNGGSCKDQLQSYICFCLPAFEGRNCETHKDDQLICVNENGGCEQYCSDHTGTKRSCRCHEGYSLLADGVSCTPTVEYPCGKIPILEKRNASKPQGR
UniProt P08709, 213-466 limits assumed: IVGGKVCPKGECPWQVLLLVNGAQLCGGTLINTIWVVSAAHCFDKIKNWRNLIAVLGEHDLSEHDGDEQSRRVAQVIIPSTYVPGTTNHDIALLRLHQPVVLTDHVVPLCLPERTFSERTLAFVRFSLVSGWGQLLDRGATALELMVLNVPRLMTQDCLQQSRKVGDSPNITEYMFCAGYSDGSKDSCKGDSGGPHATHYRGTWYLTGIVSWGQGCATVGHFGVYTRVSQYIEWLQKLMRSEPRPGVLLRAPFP

Target: TF-FVIIa (Homo sapiens, UniProt P08709)
Experiment: Inhibition of TF-FVIIa catalyzed activation of FX
Type: biochemical
Details: 300 pM relipidated TF1-243, 20 pM FVIIa, 165 nM FX, 25° C.

**Q.** For Z-GGSGGDDDDK-EEWEVLCWTWETCER [Z-A-183], which IC50 is on record?
**A.** 660 pM
